“Also recorded” adds a separate entry of the source.
How the values were obtained:
MMTV-PyMT tumors = settings: 1-way ANOVA
[1] = test system: 4T1 syngenic breast cancer model; settings: 4T1 syngeneic model; cited from earlier work

In the case of `COCCN(CC(=O)N(CC(=O)N(CC(=O)N(CCCCN)CC(=O)N(CC(=O)N(CCCCN)CC(=O)N(CCCCN)CC(=O)NCCCCCC(=O)NCCC(=O)N[C@@H](CCCCNC(=O)CN(CCCCN)C(=O)CN(CCCCN)C(=O)CN(CC(C)C)C(=O)CN(CCCCN)C(=O)CN(Cc1ccc2c(c1)OCO2)C(=O)CN(CC(C)c1ccccc1)C(=O)CN(CCOC)C(=O)CN(CC(C)C)C(=O)CNCCCCN)C(N)=O)CC(C)C)Cc1ccc2c(c1)OCO2)CC(C)c1ccccc1)C(=O)CN(CC(C)C)C(=O)CNCCCCN` (stereo partly shown) [GU81], the “phospho-histone-3 positive cells (proliferation) vs control” value (MMTV-PyMT tumors; p ≤ 0.01 (doxorubicin, combination), 3 animals/group, 5 sections/animal) is reported as “no effect on tumor cell proliferation or apoptosis; also recorded: no change in either proliferation or apoptosis markers”, the “cleaved (active) caspase-3 positive cells (apoptosis) vs control” value (MMTV-PyMT tumors; p ≤ 0.05 (doxorubicin), 3 animals/group, 5 sections/animal) is reported as “no effect on tumor cell proliferation or apoptosis; also recorded: no change in either proliferation or apoptosis markers” and the “tumor growth index vs control” value (MMTV-PyMT tumors; phospho-histone-3 / cleaved caspase-3 positive cells per 200× field, p ≤ 0.05 for combination) is reported as “no effect on tumor weight, histology, tumor fat content, or tumor growth index”. The “MVD (microvessel density), 4T1 model, single agent” value [1] was “effectively reduces tumor size and MVD”.

Reference: paper PMC2920882, “GU81, a VEGFR2 antagonist peptoid, enhances the anti-tumor activity of doxorubicin in the murine MMTV-PyMT transgenic model of breast cancer” (BMC Cancer, 2010)
